Read-outs that look alike come from different tables or passages of the source.
Assays:
[1] = target: TrkA (histidine-tagged recombinant human TrkA, cytoplasmic domain) (Homo sapiens (Human), UniProt P04629); assay: TrkA ELISA Assay; format: biochemical
Procedure: An enzyme-linked immunosorbant assay (ELISA) was used to assess TrkA kinase activity in the presence of inhibitors. Immulon 4HBX 384-well microtiter plates (Thermo part #8755) were coated with a 0.025 mg/mL solution of poly (Glu, Ala, Tyr; 6:3:1; Sigma P3899). […] The reaction mixture was removed from the plate by washing with PBS containing 0.1% (v/v) Tween 20. The phosphorylated reaction product was detected using 0.2 μg/mL of a phosphotyrosine specific monoclonal antibody (clone PY20) conjugated to horseradish peroxidase in conjunction with the TMB Peroxidase Substrate System (KPL). After the addition of 1M phosphoric acid, the chromogenic substrate color intensity was quantitated via absorbance at 450 nm.

The chains behind the UniProt entries cited, without tags or fusion partners. Residues count along the entry.
UniProt P04629, 440-796: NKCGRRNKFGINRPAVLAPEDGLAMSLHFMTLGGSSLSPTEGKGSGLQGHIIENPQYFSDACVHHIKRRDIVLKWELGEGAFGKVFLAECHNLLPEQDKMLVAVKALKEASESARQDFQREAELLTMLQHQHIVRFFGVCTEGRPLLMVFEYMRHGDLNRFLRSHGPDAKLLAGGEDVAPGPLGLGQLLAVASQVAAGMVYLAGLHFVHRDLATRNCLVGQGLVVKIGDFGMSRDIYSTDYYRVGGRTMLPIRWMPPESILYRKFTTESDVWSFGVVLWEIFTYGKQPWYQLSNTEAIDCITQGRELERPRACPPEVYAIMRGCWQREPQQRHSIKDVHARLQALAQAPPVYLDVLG
UniProt O60674, 808-1132: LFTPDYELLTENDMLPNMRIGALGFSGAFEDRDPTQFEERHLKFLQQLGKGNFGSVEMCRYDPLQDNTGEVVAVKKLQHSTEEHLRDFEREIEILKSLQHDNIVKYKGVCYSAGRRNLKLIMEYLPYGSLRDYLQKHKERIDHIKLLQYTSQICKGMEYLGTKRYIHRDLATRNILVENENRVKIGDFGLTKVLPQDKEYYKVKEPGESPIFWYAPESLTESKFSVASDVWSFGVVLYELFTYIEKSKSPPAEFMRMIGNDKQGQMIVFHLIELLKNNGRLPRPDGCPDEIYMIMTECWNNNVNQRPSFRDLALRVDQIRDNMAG

Human Jak2 kinase domain = Human Jak2 kinase domain (Homo sapiens (Human), UniProt O60674); assay: Jak2 Inhibition Assay (Omnia kinase assay); format: biochemical; settings: read-out: Jak2 Enzyme IC50
Procedure: The assays described in Examples C, D, E and F for the determination of JAK1, JAK2, JAK3 and Tyk2 kinase activity, respectively, utilized the Omnia® Kinase fluorescence peptide substrate-based technology (Invitrogen). […] The reactions were therefore read at excitation 360 nm and emission was measured at 485 nm every 50 seconds for 45 minutes using a PerkinElmer EnVision Multilabel Plate Reader.
The final buffer conditions for each of the JAK1, JAK2, JAK3 and Tyk2 assays were as follows: 25 mM HEPES, pH 7.4, 10 mM MgCl2, 0.01% Triton X-100 and 1 mM DTT.
Two-μL aliquots of these were transferred to a fresh plate for a ten-fold intermediate dilution with assay buffer. Five-μL aliquots of the diluted compounds were then transferred to 20-μL of assay mixtures described in Examples C, D, E and F for a final concentration of DMSO of 2%. […] For each plate, percent of control (POC) values were calculated for each well according to the following equation:
[formula] • where • Xmax=Average Uninhibited Controls • Xmin=Average Background IC50's were estimated from the POC's using a standard 4-parameter logistic model:
[formula] • where • A=Minimum Y (Bottom Asymptote) • B=Maximum Y (Top Asymptote) • C=EC50 • D=Slope Factor • X=Compound Concentration (nM) • Y=POC
The IC50 is defined as the concentration of inhibitor at which the POC equals 50 for the fitted curve.
Compounds of Formula I were screened for their ability to inhibit Jak2 using the general enzyme inhibition assay method, in which the assay mixture contained 500 μM ATP, 10 μM Omnia® Y7 peptide (Catalog # IVGN KNZ3071C, Invitrogen Corporation, Carlsbad, Calif.) and 4 nM Jak2 in a total volume of 20 μL. Human Jak2 kinase domain comprising amino acids 808-1132 was purchased from Invitrogen Corporation, Carlsbad, Calif. (catalog # IVGN PV4210).

[2] = Table 1, ELISA, 500 μM ATP, read-out: TrkA Enzyme IC50

Row | SMILES | IC50 [1, 2] [nM] | IC50 (Human Jak2 kinase domain) [nM] | IC50 ([1]; Table 2, read-out: TrkA IC50) [nM]
1 | CC(C)(C#N)NC(=O)c1cnn2ccc(N3CCC[C@@H]3c3cncc(F)c3)nc12 [Example 69, (R)—N-(2-cyanopropan-2-yl)-5-(2-(5-fluoropyridin-3-yl)pyrrolidin-1-yl)pyrazolo[1,5-a]pyrimidine-3-carboxamide] | 60.3 |  | 
2 | Cc1ncc(F)cc1[C@H]1CCCN1c1ccn2ncc(C(=O)N[C@H]3CC[C@H](O)CC3)c2n1 [Example 194, 5-((R)-2-(5-fluoro-2-methylpyridin-3-yl)pyrrolidin-1-yl)-N-((trans)-4-hydroxycyclohexyl)pyrazolo[1,5-a]pyrimidine-3-carboxamide] | 4.7 |  | 4.6
3 | CCc1ncc(F)cc1[C@H]1CCCN1c1ccn2ncc(C(=O)N[C@H]3CC[C@H](O)CC3)c2n1 [Example 199, 5-((R)-2-(2-ethyl-5-fluoropyridin-3-yl)pyrrolidin-1-yl)-N-((trans)-4-hydroxycyclohexyl)pyrazolo[1,5-a]pyrimidine-3-carboxamide] | 3.6 |  | 
4 | C[C@@H](NC(=O)c1cnn2ccc(N3[C@H](CO)CC[C@@H]3c3cncc(F)c3)nc12)C(F)(F)F [Example 212, 5-((2R,5S)-2-(5-fluoropyridin-3-yl)-5-(hydroxymethyl)pyrrolidin-1-yl)-N—((R)-1,1,1-trifluoropropan-2-yl)pyrazolo[1,5-a]pyrimidine-3-carboxamide] | 38 |  | 
5 | C[C@H](NC(=O)c1cnn2ccc(N3[C@H](CO)CC[C@@H]3c3cncc(F)c3)nc12)C(F)(F)F [Example 213, 5-((2R,5S)-2-(5-fluoropyridin-3-yl)-5-(hydroxymethyl)pyrrolidin-1-yl)-N—((S)-1,1,1-trifluoropropan-2-yl)pyrazolo[1,5-a]pyrimidine-3-carboxamide] | 6.8 |  | 
6 | C[C@H](NC(=O)c1cnn2ccc(N3C[C@@H](O)C[C@@H]3c3cccc(F)c3)nc12)C(F)(F)F [Example 216, 5-((2R,4S)-2-(3-fluorophenyl)-4-hydroxypyrrolidin-1-yl)-N—((S)-1,1,1-trifluoropropan-2-yl)pyrazolo[1,5-a]pyrimidine-3-carboxamide] |  | 670 | 
7 | CCc1cc(NC(=O)c2cnn3ccc(N4CCC[C@@H]4c4cc(F)cnc4OC)nc23)[nH]n1 [Example 243, (R)-N-(3-ethyl-1H-pyrazol-5-yl)-5-(2-(5-fluoro-2-methoxypyridin-3-yl)pyrrolidin-1-yl)pyrazolo[1,5-a]pyrimidine-3-carboxamide] | 9 |  | 

Now from value to compound:

Row | IC50 [1, 2] [nM] | IC50 (Human Jak2 kinase domain) [nM] | IC50 ([1]; Table 2, read-out: TrkA IC50) [nM] | SMILES
8 | 777 |  |  | O=C(O)C1CCN(C(=O)c2cnn3ccc(N4CCC[C@@H]4c4cc(F)ccc4F)nc23)CC1 [Example 11, (R)-1-(5-(2-(2,5-difluorophenyl)pyrrolidin-1-yl)pyrazolo[1,5-a]pyrimidine-3-carbonyl)piperidine-4-carboxylic acid]
9 | 1.5 | 23.4 |  | O=C(N[C@H]1CC[C@H](C(=O)O)CC1)c1cnn2ccc(N3CCC[C@@H]3c3cc(F)ccc3F)nc12 [Example 33, Trans-4-(5-((R)-2-(2,5-difluorophenyl)pyrrolidin-1-yl)pyrazolo[1,5-a]pyrimidine-3-carboxamido)cyclohexanecarboxylic acid]
10 | 0.7 |  |  | N#CCNC(=O)c1cnn2ccc(N3CCC[C@@H]3c3cc(F)ccc3F)nc12 [Example 39, (R)—N-(cyanomethyl)-5-(2-(2,5-difluorophenyl)pyrrolidin-1-yl)pyrazolo[1,5-a]pyrimidine-3-carboxamide]
11 | 1.5 | 388 |  | CS(=O)(=O)N1CCC(NC(=O)c2cnn3ccc(N4CCC[C@@H]4c4cc(F)ccc4F)nc23)CC1 [Example 44, (R)-5-(2-(2,5-difluorophenyl)pyrrolidin-1-yl)-N-(1-(methylsulfonyl)piperidin-4-yl)pyrazolo[1,5-a]pyrimidine-3-carboxamide]
12 |  | 195 |  | NS(=O)(=O)N1CCC(NC(=O)c2cnn3ccc(N4CCC[C@@H]4c4cc(F)ccc4F)nc23)CC1 [Example 45, (R)-5-(2-(2,5-difluorophenyl)pyrrolidin-1-yl)-N-(1-sulfamoylpiperidin-4-yl)pyrazolo[1,5-a]pyrimidine-3-carboxamide]
13 | 3.3 |  |  | CS(=O)(=O)NCCNC(=O)c1cnn2ccc(N3CCC[C@@H]3c3cc(F)ccc3F)nc12 [Example 46, (R)-5-(2-(2,5-difluorophenyl)pyrrolidin-1-yl)-N-(2-(methylsulfonamido)ethyl)pyrazolo[1,5-a]pyrimidine-3-carboxamide]
14 | 21 |  |  | O=C(NC1(C(=O)O)CC1)c1cnn2ccc(N3CCC[C@@H]3c3cc(F)ccc3F)nc12 [Example 84, (R)-1-(5-(2-(2,5-difluorophenyl)pyrrolidin-1-yl)pyrazolo[1,5-a]pyrimidine-3-carboxamido)cyclopropanecarboxylic acid]
15 | 7.7 |  |  | Cc1ncc(F)cc1[C@H]1CCCN1c1ccn2ncc(C(=O)N[C@H]3CC[C@@H](O)CC3)c2n1 [Example 195, 5-((R)-2-(5-fluoro-2-methylpyridin-3-yl)pyrrolidin-1-yl)-N-((cis)-4-hydroxycyclohexyl)pyrazolo[1,5-a]pyrimidine-3-carboxamide]
